Earlier results, collected in patent US9700485B2, “Delamination resistant pharmaceutical glass containers containing active pharmaceutical ingredients” (Corning Incorporated, priority 2013, dated 2017).

Tested on: DiFi cells
Settings: cited from earlier work

For “IMC-C225: anti-EGFR antibody used for comparison”, the ADCC activity is given as “mediate cell death via activation of the Antibody Dependent Cellular Cytotoxicity”.
